A selection: hits, their analogues and other compounds. The true share with any hit is near 16%.
TDP1 block = inhibitors of human tyrosyl-DNA phosphodiesterase TDP1 | Potency, µM (highest dose often 130 µM), without a hit: at the top dose activity change, negative = inhibition, hits mostly inhibitors | recombinant TDP1, AlphaScreen DNA substrate cleavage | hit rate 0.28% among 350,000 | AID 485290 | Q9NUW8; also: potency is read from the fitted curve at half-maximal effect; % is scaled to controls: 0 for no effect and ±100 for the full control effect; nearly all actives have a fitted effect of over 40% in size
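E. coli-derived human Tdp1, 1 nM final. Cpd preinc 15 min RT; substrate 15 nM final, 5 min RT; AS bead mix 10 ug/ml final, 10 min RT. Signal loss = tyrosine-FITC cleavage. No-enzyme wells = max signal.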
miR-21 reporter = miR-21 reporter, rising signal. 340,000 tested, under 10 active. Potency, µM (highest dose often 38.3 µM), for the others: at the highest dose reporter change, positive = more light. HeLa miR-21 FLuc reporter, luciferase, 48 h. AID 2288; active = well fitted rising curve with a large enough effect; inconclusive = small, poorly fitted or top-dose-only effect; inactive = no such curve, though single readings can be large or run the other way;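 further: % of control where 0% means no effect; miR-21 action dims this reporter so a rising signal means less miR-21 action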
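HeLa cells stably expressing CMV-driven firefly luciferase with a downstream miR-21 binding sequence, endogenously expressing miR-21, were treated with titrations (up to about 40uM final) for 48 hours at 37 degree Celsius. Luciferase luminescence was read after lysis.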
uPA generation = blocks generation of uPA at the cell surface | AID 540303 | cell surface uPA generation assay, qHTS | Potency, µM (titrated, usually from 38.3 µM), inactives show at the top dose activity change, negative = inhibition, actives largely listed as inhibitors | hit rate 0.31% among 330,000; active = well fitted inhibition curve with a large enough effect; inconclusive = small, poorly fitted or top-dose-only effect; inactive = no such curve, though single readings can be large or run the other way; tested in mouse RAW 264.7 cells; also: potency is read from the fitted curve at half-maximal effect; % is scaled to controls: 0 for no effect and ±100 for the full control effect; nearly all actives have a fitted effect of over 55% in size
TDP1 cell CPT = growth inhibition of DT40 Tdp1-/-;hTDP1 cells with camptothecin (screen for TDP1 inhibitors); chicken DT40 Tdp1-/-;hTDP1 cells + 20 nM CPT, ATP luminescence, 48 h; Potency, µM (top dose mostly 46.2 µM), without a hit: at the top dose activity change, negative = growth inhibition, most hits filed as inhibitors; hit rate 12% among 420,000; AID 686979; also: potency is read from the fitted curve at half-maximal effect; % is scaled to controls: 0 for no effect and ±100 for the full control effect; nearly all actives have a fitted effect of over 55% in size
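Chicken DT40 Tdp1-/- cells stably complemented with human TDP1 were seeded at 400 cells/well in medium containing 20 nM camptothecin, exposed to pin-transferred compounds, and grown at 37 °C for at least 48 hr. Viability was read as ATP luminescence.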
DT40 TDP1 no CPT = qHTS for Inhibitors of human tyrosyl-DNA phosphodiesterase 1 (TDP1): qHTS in cells in absence of CPT; DT40 Tdp1-/- hTDP1 cells, no CPT, ATP luminescence, 48 h; Potency, µM (top dose mostly 46.2 µM), inactives show top-dose activity change, negative = growth inhibition, hits mostly inhibitors; hit rate 15% among 420,000; also: potency is read from the fitted curve at half-maximal effect; % is scaled to controls: 0 for no effect and ±100 for the full control effect; nearly all actives have a fitted effect of over 55% in size
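Camptothecin absent (DMSO only). Human TDP1-complemented DT40 knockout cells, 400 cells/well, 37 °C for minimum 48 hr; ATP measured via CellTiter-Glo, 30 min dark incubation, luminescence.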
An asterisk follows results filed as active; ? = inconclusive; nt = no result; [ ] = remark or other dose. Unless noted, calls follow the shape of the dose curve; as a rule, active = well fitted curve in the direction sought with a large enough effect; inconclusive = small, poorly fitted or top-dose-only effect, or another doubt; inactive = no such curve, though single readings can be large; an effect the other way counts as inactive or inconclusive.

Sample of the layout, two compounds:
Key to letters: A = TDP1 block; B = miR-21 reporter; C = uPA generation; D = TDP1 cell CPT; E = DT40 TDP1 no CPT
molecule: O=[N+]([O-])c1ccc(Cl)c2c1C1C=CCC1C(c1ccccn1)N2 (centres undefined)
  A = 2.5% | B = 0.5% | C = -2.5% | D = 18.4µM* | E = ?

molecule: Cc1[nH]c2ccc(C(=O)NC3CCC(C)CC3)cc2c1C (centres undefined)
  A = 8.1% | B = -58.2% | C = 3.1% | D = ? | E = 11.6µM*

Results, from the first entry:
Key to letters: A = TDP1 block; B = miR-21 reporter; C = uPA generation; D = TDP1 cell CPT; E = DT40 TDP1 no CPT
molecule: O=[N+]([O-])c1ccc(Cl)c2c1C1C=CCC1C(c1ccccn1)N2 (centres undefined)
  A = 2.5% | B = 0.5% | C = -2.5% | D = 18.4µM* | E = ?

molecule: Cc1[nH]c2ccc(C(=O)NC3CCC(C)CC3)cc2c1C (centres undefined)
  A = 8.1% | B = -58.2% | C = 3.1% | D = ? | E = 11.6µM*

molecule: Cc1[nH]c2ccc(C(=O)Nc3ccncc3)cc2c1C
  A = nt | B = -3.8% | C = 8.4% | D = 13µM* | E = 11.6µM*

molecule: COc1cc(NC(=O)C(OC(=O)CNC(=O)c2ccccc2)c2ccccc2)cc(OC)c1 (centres undefined)
  A = 0.2% | B = nt | C = nt | D = nt | E = nt

molecule: O=C(Cc1cccc([N+](=O)[O-])c1)Nc1cccc(C(=O)N2CCCCC2)c1
  A = 2.8% | B = nt | C = 5.2% | D = ? | E = ?

molecule: O=C(N/N=C/c1ccccc1[N+](=O)[O-])c1cccs1
  A = 3.7% | B = -66.8% | C = -5.8% | D = 7.9% | E = -13.9%

molecule: O=C(N/N=C/C=C/c1ccccc1[N+](=O)[O-])c1cccs1
  A = -3.4% | B = -36.7% | C = 0.8% | D = ? | E = 8.2µM*

molecule: O=C(N/N=C/C=C/c1ccccc1)c1cccs1
  A = 2.7% | B = -62.6% | C = 11.0% | D = -14.5% | E = -0.5%

molecule: Cc1ccc(/C=N/NC(=O)c2cccs2)cc1[N+](=O)[O-]
  A = 3.0% | B = -66.5% | C = -20.8% | D = 11.6µM* | E = 16.4µM*

molecule: O=C(N/N=C\C=C\c1ccc([N+](=O)[O-])o1)c1cccs1
  A = nt | B = 9.3% | C = -11.5% | D = 4.11µM* | E = 3.26µM*

molecule: COc1ccc(S(=O)(=O)N2CCOCC2)cc1NC(=O)CCCOc1ccc(C(C)=O)cc1
  A = nt | B = nt | C = nt | D = 2.7% | E = -17.2%

molecule: COCCn1c(=O)c(-c2cn(C)c3ccccc23)nc2cnc(OCc3ccccc3)nc21
  A = nt | B = nt | C = nt | D = -0.8% | E = 32.0%

molecule: NC(=O)C1CCN(C(=O)c2cccc(CN3C(=O)c4ccccc4C3=O)c2)CC1
  A = 0.0%[56.1 µM] | B = nt | C = -0.6% | D = 10.3% | E = -17.0%

molecule: COc1cccc(CNC(=O)C2CCN(c3ncnc4c3nc3n4CCCCC3)CC2)c1
  A = 2.5% | B = 1.0% | C = 8.6% | D = -28.6% | E = ?

molecule: FC(F)(F)c1cccc(N2CCN(c3ncnc4c3nc3n4CCCC3)CC2)c1
  A = -1.2% | B = 20.4% | C = nt | D = 9.2µM* | E = 9.2µM*

molecule: COc1cccc(N2CCN(c3ncnc4c3nc3n4CCCCC3)CC2)c1
  A = 6.2% | B = ? | C = nt | D = 16.4µM* | E = 10.3µM*

molecule: Cc1ccc(-c2nn[nH]n2)cc1
  A = 0.0% | B = -8.2% | C = 0.2% | D = -1.8% | E = ?

molecule: O=C1Nc2ncccc2OC1CCCl (centres undefined)
  A = 2.9% | B = -0.9% | C = -0.7% | D = 7.5% | E = -4.2%

molecule: C[C@H](CO)N1C[C@H](C)[C@@H](CN(C)S(=O)(=O)c2ccccc2)Oc2c(cccc2N(C)C)C1=O
  A = 0.5% | B = nt | C = 10.3% | D = ? | E = ?

molecule: COc1ccc(NC(=O)N(C)C[C@H]2Oc3c(NC(=O)c4ccncc4)cccc3C(=O)N([C@H](C)CO)C[C@@H]2C)cc1
  A = 0.3% | B = nt | C = -3.4% | D = 0.0231µM* | E = -0.6%

molecule: C[C@H](CO)N1C[C@H](C)[C@@H](CN(C)C(=O)Nc2ccc(C(F)(F)F)cc2)Oc2c(cccc2N(C)C)C1=O
  A = 0.1% | B = nt | C = 10.5% | D = ? | E = 23.1µM*

molecule: C[C@@H]1CN([C@H](C)CO)C(=O)c2cccc(NC(=O)Nc3ccc(F)cc3)c2O[C@H]1CN(C)C(=O)Nc1ccc(C(F)(F)F)cc1
  A = 0.7% | B = nt | C = ? | D = ? | E = ?

molecule: CC(C)NC(=O)N(C)C[C@H]1Oc2c(NC(=O)Nc3ccc(C(F)(F)F)cc3)cccc2C(=O)N([C@H](C)CO)C[C@@H]1C
  A = 1.4% | B = nt | C = 7.1% | D = ? | E = 18.4µM*

molecule: Cc1noc(C)c1S(=O)(=O)N(C)C[C@H]1Oc2c(cccc2N(C)C)C(=O)N([C@H](C)CO)C[C@@H]1C
  A = 100µM* | B = nt | C = 0.8% | D = -18.3% | E = ?

molecule: COc1ccc(NC(=O)N(C)C[C@H]2Oc3c(NC(=O)Nc4ccc(C(F)(F)F)cc4)cccc3C(=O)N([C@H](C)CO)C[C@@H]2C)cc1
  A = 1.9% | B = nt | C = 0.5% | D = 16.4µM* | E = 13µM*

Single entries from the entries so far.
In DT40 TDP1 no CPT, `NC(=O)C1CCN(C(=O)c2cccc(CN3C(=O)c4ccccc4C3=O)c2)CC1` has the entry -17.0%
In uPA generation, `O=C(Cc1cccc([N+](=O)[O-])c1)Nc1cccc(C(=O)N2CCCCC2)c1` has the entry 5.2%

Remaining list, next part.
Key to letters: A = TDP1 block; B = miR-21 reporter; C = uPA generation; D = TDP1 cell CPT; E = DT40 TDP1 no CPT
molecule: O=C(O)c1cccc(NC(=O)c2ccc3c(c2)C(=O)N(Cc2ccco2)C3=O)c1
  A = 50.1µM* | B = 8.6% | C = 0.0% | D = 0.4% | E = -9.3%

molecule: O=c1c(Oc2ccccc2Br)c(C(F)(F)F)oc2c(CN3CCCC3)c(O)ccc12
  A = -1.5% | B = 1.9% | C = 5.8% | D = ? | E = -16.4%

molecule: CCOC(=O)c1sc2ccccc2c1S(=O)(=O)Nc1ccc(OC)c(Cl)c1
  A = 8.4% | B = 0.6% | C = nt | D = ? | E = -29.2%

molecule: COc1ccc(-c2cc(C(=O)Nc3cc(C)on3)c3ccccc3n2)c(OC)c1
  A = 0.6% | B = 5.3% | C = 3.8% | D = 11.6µM* | E = 9.2µM*

molecule: Cc1cc(NC(=O)c2cc(-c3cccs3)nc3ccccc23)no1
  A = 1.1% | B = 15.8% | C = ? | D = 20.6µM* | E = 25.9µM*

molecule: Cc1cc(NC(=O)CSc2nc(-c3cccs3)nc3ccccc23)no1
  A = -20.0% | B = nt | C = 1.78µM* | D = 2.31µM* | E = 1.84µM*

molecule: CN(C)S(=O)(=O)c1ccc(NC(=O)c2cc(-c3cccs3)nc3ccccc23)cc1
  A = 0.6% | B = 27.1% | C = -5.8% | D = ? | E = 14.6µM*

molecule: CCN(CC)S(=O)(=O)c1ccc(NC(=O)c2cc(-c3cccs3)nc3ccccc23)cc1
  A = 0.6% | B = 16.3% | C = -8.6% | D = ? | E = ?

molecule: CC(=O)C1=C(O)C(=O)N(Cc2cccnc2)C1c1ccc(C)cc1 (centres undefined)
  A = -4.9% | B = -7.7% | C = nt | D = nt | E = nt

molecule: Cc1cc(C)nc(NC(=O)c2cc(-c3ccc(C)s3)nc3ccccc23)c1
  A = nt | B = -1.7% | C = 1.6% | D = ? | E = 20.6µM*

molecule: Cc1cc(NC(=O)c2cc(-c3ccccn3)nc3ccccc23)no1
  A = -1.0% | B = 6.7% | C = -1.9% | D = -6.8% | E = -21.2%

molecule: Cc1cc(NC(=O)c2cc(-c3ccc(C)c(C)c3)nc3ccccc23)no1
  A = 2.6% | B = -3.3% | C = -0.4% | D = 11.6µM* | E = 10.3µM*

molecule: Cc1cc(SCC(=O)NCC(c2cccs2)N2CCOCC2)c(C)cc1Br (centres undefined)
  A = nt | B = nt | C = 5.7% | D = ? | E = 18.4µM*

molecule: O=C(COc1cccc(Cl)c1)NCC(c1cccs1)N1CCOCC1 (centres undefined)
  A = 2.3% | B = nt | C = 11.9% | D = -28.4% | E = -19.6%

molecule: Cc1ccc(C(C)C)c(OCC(=O)NCC(c2cccs2)N2CCOCC2)c1 (centres undefined)
  A = 4.3% | B = nt | C = 4.5% | D = 25.9µM* | E = 13µM*

molecule: Cc1cc(Cl)ccc1OCC(=O)NCC(c1cccs1)N1CCOCC1 (centres undefined)
  A = nt | B = nt | C = 3.9% | D = ? | E = 16.4µM*

molecule: CCC(=O)NCC(c1cccs1)N1CCOCC1 (centres undefined)
  A = 2.1% | B = 1.1% | C = 9.0% | D = ? | E = -10.9%

molecule: CCc1ccc(NC(=O)C2CCN(S(=O)(=O)c3ccc4[nH]c(=O)ccc4c3)CC2)cc1
  A = nt | B = -0.3% | C = -7.2% | D = -19.9% | E = -11.5%

molecule: Cc1cc(NC(=O)c2ccc(Cl)c([N+](=O)[O-])c2)no1
  A = 8.6% | B = 5.0% | C = -5.8% | D = -9.8% | E = ?

molecule: Cc1cccc(-c2nc(C)c(CCNC(=O)C(=O)Nc3ccc(C)c(C)c3)s2)c1
  A = -2.2% | B = -0.6% | C = nt | D = nt | E = nt

Compound activity: PubChem, National Center for Advancing Translational Sciences (NCATS)
